# Binding of CDR-mutated scFvs to a peptide of the spike HR2 region

Values reported by Engelhart et al. 2022, doi:10.1038/s41597-022-01779-4 (FLAb copy).

Target peptide (SARS-CoV-2 spike, HR2 region): PDVDLGDISGINAS

Parent scFv Ab-14: VH joined to VL by a 15-residue (Gly4Ser)3 linker. Changes lie in the light chain CDRs alone.
VH: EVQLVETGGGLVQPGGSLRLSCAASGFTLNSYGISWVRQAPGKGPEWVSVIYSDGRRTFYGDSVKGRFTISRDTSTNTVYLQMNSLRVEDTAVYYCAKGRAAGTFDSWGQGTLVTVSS
VL: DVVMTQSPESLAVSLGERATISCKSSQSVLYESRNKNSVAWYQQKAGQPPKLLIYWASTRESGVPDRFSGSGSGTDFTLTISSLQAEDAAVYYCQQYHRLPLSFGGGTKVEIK

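The starting antibody came from a phage panning campaign against this peptide. Library AAYL50 holds single substitutions and randomly drawn double and triple substitutions in the CDRs. Affinity was read by AlphaSeq, a pooled yeast mating assay with surface-displayed partners. After mating in shaken culture at 30 °C for 16 h, diploids were selected and their barcode pairs sequenced. The ratio of observed to expected reads was calibrated, replicate by replicate, on BCL2-family standards whose Kd was known from biolayer interferometry. There are three technical replicates.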

Each variant is given by its three light chain CDRs, as the data file delimits them; those of the parent are KSSQSVLYESRNKNSVA, WASTRES, QQYHRLPLS. The read-out is the apparent dissociation constant on a log10 scale (nM): the lower, the stronger. Averages over replicates are reported, and they cover detected replicates only. "nd" marks a missing value. The strain was present, yet no cells mated with the target were sequenced in any replicate, which points to weak or no binding. In this assay the parent's reference entry averaged 0.65; its copy inside this library read 1.68. Three control strains display no target. For library AAYL50, 18% of the pairings with them gave a signal, with a median of 4.19 and one signal in twenty below 2.99, so weak values seen in few replicates may be background.

{"CDR-L1": "KSSQSVLYESRNKNSVA", "CDR-L2": "WADTREK", "CDR-L3": "QQYHPLPLS", "mean log10 Kd (nM)": "1.29", "seen in": "3/3"}
{"CDR-L1": "KSSQSVLYESRNKNSHA", "CDR-L2": "WASTEES", "CDR-L3": "QQYHRLPLS", "mean log10 Kd (nM)": "3.68", "seen in": "1/3"}
{"CDR-L1": "KSSQSMLYESRGKNSVA", "CDR-L2": "WASTRES", "CDR-L3": "QQYHRLQLS", "mean log10 Kd (nM)": "1.31", "seen in": "3/3"}
{"CDR-L1": "KSSFSVLYESRNKNSVA", "CDR-L2": "WASTRES", "CDR-L3": "QQDHRLPLE", "mean log10 Kd (nM)": "4.92", "seen in": "2/3"}
{"CDR-L1": "GSSLSVLYESRNKNSVA", "CDR-L2": "WASTRES", "CDR-L3": "QQYHRLPQS", "mean log10 Kd (nM)": "2.93", "seen in": "1/3"}
{"CDR-L1": "KSSQPVLYESRNKNSVA", "CDR-L2": "WASTDES", "CDR-L3": "TQYHRLPLS", "mean log10 Kd (nM)": "nd", "seen in": "0/3"}
{"CDR-L1": "KSSQSVLYESRNKSDVA", "CDR-L2": "WASTEES", "CDR-L3": "QQYHRLPLS", "mean log10 Kd (nM)": "nd", "seen in": "0/3"}
{"CDR-L1": "KSSQSVLYESRNKNSVA", "CDR-L2": "WASTRGN", "CDR-L3": "QQYHRLMLS", "mean log10 Kd (nM)": "1.93", "seen in": "3/3"}
{"CDR-L1": "KSSQSVLYESRRKNSVA", "CDR-L2": "WLSTRES", "CDR-L3": "QQYHRLPYS", "mean log10 Kd (nM)": "nd", "seen in": "0/3"}
{"CDR-L1": "KSSQSVLHESRNKNSVA", "CDR-L2": "WASTRET", "CDR-L3": "QQYHRLVLS", "mean log10 Kd (nM)": "nd", "seen in": "0/3"}
{"CDR-L1": "KSSQSQLYESRNKNSVA", "CDR-L2": "WASTLES", "CDR-L3": "KQYHRLPLS", "mean log10 Kd (nM)": "6.07", "seen in": "1/3"}
{"CDR-L1": "KSSYSVLYESRNKNSVA", "CDR-L2": "WASWRES", "CDR-L3": "HQYHRLPLS", "mean log10 Kd (nM)": "nd", "seen in": "0/3"}
{"CDR-L1": "KSSCSVLYESSNKNSTA", "CDR-L2": "WASTRES", "CDR-L3": "QQYHRLPLS", "mean log10 Kd (nM)": "4.06", "seen in": "1/3"}
{"CDR-L1": "KSSQSVLYESRNKNSVA", "CDR-L2": "WAWTRES", "CDR-L3": "QQYHRLGYS", "mean log10 Kd (nM)": "nd", "seen in": "0/3"}
{"CDR-L1": "KSSQSVLYESRDKESVA", "CDR-L2": "WASTRES", "CDR-L3": "QQYHGLPLS", "mean log10 Kd (nM)": "4.51", "seen in": "1/3"}
{"CDR-L1": "KSSQSVLYESRMGNSFA", "CDR-L2": "WASTRES", "CDR-L3": "QQYHRLPLS", "mean log10 Kd (nM)": "4.50", "seen in": "2/3"}
{"CDR-L1": "KKSQSVLYESINKNSVA", "CDR-L2": "PASTRES", "CDR-L3": "QQYHRLPLS", "mean log10 Kd (nM)": "nd", "seen in": "0/3"}
{"CDR-L1": "KSSQSVGYESRNVNSVA", "CDR-L2": "WASTRES", "CDR-L3": "QQYHRLYLS", "mean log10 Kd (nM)": "0.81", "seen in": "3/3"}
{"CDR-L1": "KSSQSVLYESRNKNMVA", "CDR-L2": "WASTRES", "CDR-L3": "QQYHRLPWS", "mean log10 Kd (nM)": "nd", "seen in": "0/3"}
{"CDR-L1": "KSSQSVLYESRNKNSVD", "CDR-L2": "WSSTRES", "CDR-L3": "QQYHRLPLS", "mean log10 Kd (nM)": "nd", "seen in": "0/3"}

The 3 strongest on average among those seen in every replicate, once more:

{"CDR-L1": "KSSQSVGYESRNVNSVA", "CDR-L2": "WASTRES", "CDR-L3": "QQYHRLYLS", "mean log10 Kd (nM)": "0.81", "seen in": "3/3"}
{"CDR-L1": "KSSQSVLYESRNKNSVA", "CDR-L2": "WADTREK", "CDR-L3": "QQYHPLPLS", "mean log10 Kd (nM)": "1.29", "seen in": "3/3"}
{"CDR-L1": "KSSQSMLYESRGKNSVA", "CDR-L2": "WASTRES", "CDR-L3": "QQYHRLQLS", "mean log10 Kd (nM)": "1.31", "seen in": "3/3"}